The values below come from US7087035B2 (priority 1999, dated 2006).

Where two headings read alike, the source gives them in different places.

For this series the following is noted: for average flux (mean±sem): 100 μA/cm^2, extrapolated using pharmacokinetic analysis.

On to insulin, for which the plasma insulin concentrations entry (effect of skin stretching, 100 μA/cm^2 for 2 hours, radioimmunoassay, FIG. 28) was “significant enhancement effect of skin stretching”. The “average flux (mean±sem)” value runs as follows: (stretched group) 53±13 μg/cm^2h; (unstretched group) 26±9 μg/cm^2h. Also, the “amount of insulin delivered transdermally” value (with skin stretching relative to no stretching, FIG. 28) is listed as “doubled”.
